Values joined by “and” are separate entries in the source; they are usually repeats but may differ in a detail not shown here. Equal values may be shown once. Read-outs that look alike come from different tables or passages of the source.
Biological target: QC (Homo sapiens, UniProt Q16769)
Experiment: Continuous spectrophotometric assay of substrate conversion, human QC;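 note: initial rates read at 30 °C in a microplate reader, with activity quantified against an ammonia calibration curve under the same assay conditions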
Assay type: biochemical
Set-up: The cDNA of the mature QC starting with codon 38 was fused in frame with the plasmid encoded 6× histidine tag; 6x histidine tag; made in house; host or cells: Pichia pastoris X33 (pPICZαB); also E. coli M15 (pQE-31)

Amino acid sequences for entries named in this document (tags omitted). Residues count along the entry.
UniProt Q16769, 29-361: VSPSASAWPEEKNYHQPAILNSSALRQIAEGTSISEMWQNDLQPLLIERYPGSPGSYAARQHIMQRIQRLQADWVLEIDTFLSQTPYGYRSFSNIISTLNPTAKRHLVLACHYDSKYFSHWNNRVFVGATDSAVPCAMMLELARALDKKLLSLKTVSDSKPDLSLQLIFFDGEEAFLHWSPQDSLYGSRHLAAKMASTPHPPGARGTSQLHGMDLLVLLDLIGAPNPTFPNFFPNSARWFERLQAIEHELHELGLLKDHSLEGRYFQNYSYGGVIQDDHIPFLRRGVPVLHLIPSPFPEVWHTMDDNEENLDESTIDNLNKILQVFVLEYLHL

NC(=O)CC[C@H](N)C(=O)NCC(=O)O [H-Gln-Gly-OH]
Ki* (Table 6, for substrate inhibition, n.i. = no inhibition): n.i. | kcat (Table 6, n.r. = not reactive): 13.2 ± 0.2 s⁻¹

NC(=O)CC[C@H](N)C(=O)Nc1ccc2ccccc2c1 [H-Gln-βNA]
Ki: 1210 ± 70 µM | Km: 70 ± 3 µM | Ki (pH 8): 1390 µM and 970 µM | Km (pH 8): 76 µM and 63 µM
